This test has as its target poly(ADP-ribose) polymerase (PARP) (Bos taurus, UniProt P18493). Nature of the test: Activity against purified PARP, [3H]NAD incorporation. In kind it is biochemical. The conditions noted are these: read-out: IC50 of PARP inhibitors tested on enzyme prepared from bovine thymus; purified PARP from foetal calf thymus, 37° C., 30 mins.

Chains of the proteins cited; added tags and fusions are not shown.
UniProt P18493, whole entry: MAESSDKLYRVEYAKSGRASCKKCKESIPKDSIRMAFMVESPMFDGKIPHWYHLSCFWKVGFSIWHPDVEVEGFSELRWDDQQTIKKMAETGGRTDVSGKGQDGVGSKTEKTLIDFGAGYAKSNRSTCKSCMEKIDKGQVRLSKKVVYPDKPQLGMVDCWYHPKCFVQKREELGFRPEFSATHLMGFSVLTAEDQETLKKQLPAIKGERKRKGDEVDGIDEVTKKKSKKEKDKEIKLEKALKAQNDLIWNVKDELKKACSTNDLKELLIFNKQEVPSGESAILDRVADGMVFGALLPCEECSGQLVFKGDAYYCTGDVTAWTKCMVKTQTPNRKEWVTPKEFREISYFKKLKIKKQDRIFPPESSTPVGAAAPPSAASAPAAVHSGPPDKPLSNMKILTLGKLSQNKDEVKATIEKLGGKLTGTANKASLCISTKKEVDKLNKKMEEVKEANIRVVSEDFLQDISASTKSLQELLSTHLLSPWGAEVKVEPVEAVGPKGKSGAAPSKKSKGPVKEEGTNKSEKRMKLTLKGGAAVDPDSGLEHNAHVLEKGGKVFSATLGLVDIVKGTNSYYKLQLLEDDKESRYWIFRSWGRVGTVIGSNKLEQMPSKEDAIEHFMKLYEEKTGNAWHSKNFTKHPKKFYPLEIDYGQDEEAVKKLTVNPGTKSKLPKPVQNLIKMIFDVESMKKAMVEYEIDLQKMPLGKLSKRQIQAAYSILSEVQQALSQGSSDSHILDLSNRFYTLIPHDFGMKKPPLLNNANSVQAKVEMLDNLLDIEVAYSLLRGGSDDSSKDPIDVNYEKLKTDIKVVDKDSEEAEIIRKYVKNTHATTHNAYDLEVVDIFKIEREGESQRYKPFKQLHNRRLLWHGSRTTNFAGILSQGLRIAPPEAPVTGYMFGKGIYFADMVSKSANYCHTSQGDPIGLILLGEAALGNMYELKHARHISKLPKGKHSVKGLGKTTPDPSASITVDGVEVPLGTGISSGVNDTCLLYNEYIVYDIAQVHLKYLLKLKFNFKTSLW

In general, IC50 refers to the concentration at which inhibition is half-maximal.

Take `O=C1NCCc2c(OCCCCN3CCCCC3)cccc21`: the IC50 is 10 µM.

The values are drawn from patent publication US7825129B2, “Thieno[2,3-c] isoquinolines for use as inhibitors of PARP” (priority 2000, dated 2010).
